Earlier results, collected in US11021435B2, “Serotonin receptor-targeting compounds and methods” (priority 2014, dated 2021).

By UniProt entry, the sequences of proteins in these tests, tags left out.
UniProt P28223, whole entry: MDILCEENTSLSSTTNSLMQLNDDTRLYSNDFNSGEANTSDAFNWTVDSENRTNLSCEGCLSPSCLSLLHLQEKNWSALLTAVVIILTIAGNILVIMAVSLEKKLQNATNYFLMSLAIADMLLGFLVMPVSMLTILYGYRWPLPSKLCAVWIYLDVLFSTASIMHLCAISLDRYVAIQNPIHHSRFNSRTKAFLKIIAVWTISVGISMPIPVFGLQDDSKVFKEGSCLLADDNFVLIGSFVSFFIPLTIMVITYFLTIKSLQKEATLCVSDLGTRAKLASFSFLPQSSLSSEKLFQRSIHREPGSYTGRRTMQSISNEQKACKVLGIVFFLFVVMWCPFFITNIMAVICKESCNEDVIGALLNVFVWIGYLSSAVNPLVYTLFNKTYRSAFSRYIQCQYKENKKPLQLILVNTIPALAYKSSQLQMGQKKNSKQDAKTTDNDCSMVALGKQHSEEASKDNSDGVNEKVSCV
UniProt P41595, whole entry: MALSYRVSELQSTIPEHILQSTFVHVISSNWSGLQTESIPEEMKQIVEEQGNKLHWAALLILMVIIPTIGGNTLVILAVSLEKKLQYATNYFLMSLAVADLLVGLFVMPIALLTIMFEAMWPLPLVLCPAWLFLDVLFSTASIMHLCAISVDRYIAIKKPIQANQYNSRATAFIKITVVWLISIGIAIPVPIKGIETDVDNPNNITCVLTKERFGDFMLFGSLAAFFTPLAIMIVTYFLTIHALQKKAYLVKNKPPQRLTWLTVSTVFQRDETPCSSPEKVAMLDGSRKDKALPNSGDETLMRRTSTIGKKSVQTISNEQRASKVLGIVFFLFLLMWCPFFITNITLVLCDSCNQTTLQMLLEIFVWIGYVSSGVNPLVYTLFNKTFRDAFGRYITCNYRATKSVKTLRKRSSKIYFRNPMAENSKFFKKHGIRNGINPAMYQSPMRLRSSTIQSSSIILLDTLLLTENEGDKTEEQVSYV

What was measured:
5-HT2A = 5-HT2A (Homo sapiens, UniProt P28223); set-up: expressed in transfected cells; host or cells: HEK293, transient; conditions: cited from earlier work
5-HT2B = 5-HT2B (Homo sapiens, UniProt P41595); set-up: expressed in transfected cells; host or cells: HEK293, transient; conditions: cited from earlier work

Clc1cccc(N2CCNCC2)c1 [mCPP]
Activation of 5-HT2A receptors by reported selective 5-HT2C agonists (5-HT2A): also activate
Activation of 5-HT2B receptors by reported selective 5-HT2C agonists (5-HT2B): also activate
